# Yeast mating assay 1: variants of the scFv Ab-14

Reference: Engelhart et al. 2022, doi:10.1038/s41597-022-01779-4. File: FLAb, binding data.

Target peptide (SARS-CoV-2 spike, HR2 region): PDVDLGDISGINAS

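The starting antibody came from a phage panning campaign against this peptide. The library (AAYL49) carries one to three amino acid substitutions per variant, with no insertions or deletions. The scFvs were displayed on barcoded MATa yeast, the peptide on MATalpha yeast. Mating (16 h, 30 °C) was followed by selection of diploids and sequencing of their barcodes. The ratio of observed to expected reads was calibrated, replicate by replicate, on BCL2-family standards whose Kd was known from biolayer interferometry. Each pool was mated in three replicate cultures.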

The variants keep the light chain, the linker and the frameworks of Ab-14 (scFv order VH, a (GGGGS)3 linker, VL).
VH: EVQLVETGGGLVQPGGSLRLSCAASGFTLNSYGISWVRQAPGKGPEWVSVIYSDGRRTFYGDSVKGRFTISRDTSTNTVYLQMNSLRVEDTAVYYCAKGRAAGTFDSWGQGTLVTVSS
VL: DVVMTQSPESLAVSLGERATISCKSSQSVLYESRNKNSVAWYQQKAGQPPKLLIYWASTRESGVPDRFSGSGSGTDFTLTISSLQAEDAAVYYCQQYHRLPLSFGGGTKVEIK

Each variant's VH is given in full. Values are log10 of the apparent Kd in nM; lower means stronger binding. "nd" marks a missing value. The strain was present, yet no cells mated with the target were sequenced in that replicate, which points to weak or no binding.

VH,"log10 Kd, replicates",control signals
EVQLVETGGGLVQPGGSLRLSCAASGFTLNSYEISWVRQAPGKGPEWVSVIYSDGRRRFYGDSVKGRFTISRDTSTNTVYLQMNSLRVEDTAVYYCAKGRYAGTFDSWGQGTLVTVSS,nd / nd / nd,0/9
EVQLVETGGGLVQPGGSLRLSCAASGFTLNSYGISWVRQAPGKGPEWVSVIYSDLRRTFCHDSVKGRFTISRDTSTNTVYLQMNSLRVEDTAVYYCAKGRAAGTFDSWGQGTLVTVSS,3.36 / nd / nd,2/9 (3.96)
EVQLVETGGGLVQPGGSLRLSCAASGDTLNSYGISWVRQAPGKGPEWVSVIYGDGRRTFYGDSVKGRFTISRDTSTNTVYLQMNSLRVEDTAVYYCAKGRADGTFDSWGQGTLVTVSS,5.82 / 3.11 / 3.85,5/9 (4.42)
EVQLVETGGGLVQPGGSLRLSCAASGFTLNSYGISWVRQAPGKGPEWVSVIYSDGRRTFYGESVKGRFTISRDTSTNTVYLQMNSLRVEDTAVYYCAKGRAAQTWDSWGQGTLVTVSS,nd / 2.77 / 3.31,1/9 (3.15)
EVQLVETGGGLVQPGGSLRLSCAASGFSLNSYGISWVRQAPGKGPEWVSVIYSNGRRTFYGDSVKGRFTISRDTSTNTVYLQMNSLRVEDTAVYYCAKVRAAGTFDSWGQGTLVTVSS,nd / nd / nd,2/9 (3.24)
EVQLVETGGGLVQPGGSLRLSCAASTFTLNSYGISWVRQAPGKGPEWVSDIYVDGRRTFYGDSVKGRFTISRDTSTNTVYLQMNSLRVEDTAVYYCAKGRAAGTFDSWGQGTLVTVSS,nd / nd / nd,1/9 (3.94)
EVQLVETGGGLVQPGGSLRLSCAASGCTLNSYGIAWVRQAPGKGPEWVSVIYSDGRRTFYGDSVKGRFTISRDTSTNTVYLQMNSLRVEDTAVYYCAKGRAKGTFDSWGQGTLVTVSS,nd / nd / nd,2/9 (4.96)
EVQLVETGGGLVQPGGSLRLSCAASGFTLNSYGISWVRQAPGKGPEWVSVIYSDGRRTFYGDSVKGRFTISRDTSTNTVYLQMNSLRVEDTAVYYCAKGRGAGTFGSWGQGTLVTVSS,nd / nd / nd,0/9
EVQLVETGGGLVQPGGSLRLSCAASGFTLNSYHISWVRQAPGKGPEWVSHIYSDGRRTFYGDSVQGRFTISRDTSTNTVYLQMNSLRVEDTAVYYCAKGRAAGTFDSWGQGTLVTVSS,5.11 / 3.50 / nd,1/9 (2.40)
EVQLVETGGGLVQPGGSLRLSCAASGFTLNSYIISWVRQAPGKGPEWVSVIYSDGRRTFYGDSVKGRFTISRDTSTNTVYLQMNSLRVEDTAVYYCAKGLAAMTFDSWGQGTLVTVSS,nd / nd / nd,1/9 (2.61)
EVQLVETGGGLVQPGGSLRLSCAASGFQLNSYGISWVRQAPGKGPEWVSVIYSDGRRTFYGDVVKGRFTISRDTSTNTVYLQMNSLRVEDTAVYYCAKGRAANTFDSWGQGTLVTVSS,nd / nd / nd,0/9
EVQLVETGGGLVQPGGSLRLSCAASGVTLNSYGISWVRQAPGKGPEWVSVIYSDGRWTFYGDSVKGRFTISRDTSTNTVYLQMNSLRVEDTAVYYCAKGRAAGTVDSWGQGTLVTVSS,4.07 / 5.55 / nd,4/9 (4.70)
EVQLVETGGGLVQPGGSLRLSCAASGFTLNSYGISWVRQAPGKGPEWVSVIKSDARRTFYGDFVKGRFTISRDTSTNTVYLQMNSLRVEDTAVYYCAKGRAAGTFDSWGQGTLVTVSS,nd / nd / 0.93,0/9
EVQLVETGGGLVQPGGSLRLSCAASGFTLNSYGISWVRQAPGKGPEWVSVIYSWGRRTFYGFSVKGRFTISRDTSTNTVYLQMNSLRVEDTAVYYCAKGSAAGTFDSWGQGTLVTVSS,4.39 / 2.92 / 4.25,3/9 (3.97)
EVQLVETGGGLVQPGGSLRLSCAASGFYLNSYGISWVRQAPGKGPEWVSQIYSDGRRTFYGDSVAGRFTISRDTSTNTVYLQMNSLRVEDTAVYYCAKGRAAGTFDSWGQGTLVTVSS,3.61 / nd / nd,3/9 (3.56)

Extract of 2 entries:

| VH | log10 Kd, replicates | control signals |
|---|---|---|
| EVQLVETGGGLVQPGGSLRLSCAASGFTLNSYGISWVRQAPGKGPEWVSVIYSDLRRTFCHDSVKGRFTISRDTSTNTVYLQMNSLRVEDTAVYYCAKGRAAGTFDSWGQGTLVTVSS | 3.36 / nd / nd | 2/9 (3.96) |
| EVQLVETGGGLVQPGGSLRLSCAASGFTLNSYHISWVRQAPGKGPEWVSHIYSDGRRTFYGDSVQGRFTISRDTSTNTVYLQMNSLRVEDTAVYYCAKGRAAGTFDSWGQGTLVTVSS | 5.11 / 3.50 / nd | 1/9 (2.40) |

Parent in this assay: reference entry 0.65, copy in this library 4.11 (one replicate of three). As a blank, each scFv also met three strains without target: over library AAYL49, 15% of these pairings were detected, typically at 4.06 and seldom below 2.83. For each scFv, signals with the empty controls are counted beside the result, with their mean in brackets.